# Reference: paper PMC3670694 (Biochemistry, 2013)
# B1: LpxK (A. aeolicus LpxK) (Aquifex aeolicus VF5; E100A) (protein)
# chain: MLRSSLLPFSYLYEKIINFRNTLYDKGFLKIKKLPVPVISVGNLSVGGSGKTSFVMYLADLLKDKRVCILSRGYKRKSKGTLIVSEYGNLKVSWEEAGDAPYLMAKLLPHVSVVASEDRYKGGLLALEKLSPEVFILDDGFQHRKLHRDLNILLLKKKDLKDRLLPAGNLREPLKEIRRADALVLTYQEVEPFEFFTGKPTFKMFREFCCLLNSDFEEVPFDILKEREVIAFSGLGDNGQFRKVLKNLGIKVKEFMSFPDHYDYSDFTPEEGEIYLTTPKDLIKLQGYENVFALNFKVKLEREEKLKKLIYRIFY
# B2: LpxK (A. aeolicus LpxK) (Aquifex aeolicus VF5; H261A) (protein)
# chain: B1 chain with A100E, H261A
# B3: LpxK (A. aeolicus LpxK) (Aquifex aeolicus VF5; D138A) (protein)
# chain: B1 chain with A100E, D138A
# B4: LpxK (A. aeolicus LpxK) (Aquifex aeolicus VF5; K51A) (protein)
# chain: B1 chain with K51A, A100E
# B5: LpxK (A. aeolicus LpxK) (Aquifex aeolicus VF5; E100Q) (protein)
# chain: B1 chain with A100Q
# B6: LpxK (A. aeolicus LpxK) (Aquifex aeolicus VF5; S53A) (protein)
# chain: B1 chain with S53A, A100E
# B7: LpxK (A. aeolicus LpxK) (Aquifex aeolicus VF5; D139A) (protein)
# chain: B1 chain with A100E, D139A
# B8: LpxK (A. aeolicus LpxK) (Aquifex aeolicus VF5; D99A) (protein)
# chain: B1 chain with D99A, A100E
# B9: LpxK (A. aeolicus LpxK) (Aquifex aeolicus VF5; S49A) (protein)
# chain: B1 chain with S49A, A100E
# B10: LpxK (A. aeolicus LpxK) (Aquifex aeolicus VF5; T52A) (protein)
# chain: B1 chain with T52A, A100E
# Biological target: T1, LpxK (A. aeolicus LpxK) (Aquifex aeolicus, UniProt O67572)
# Test: not given
# Settings: co-crystal, 10 mM ATP, 1 mM EDTA, no Mg; open conformation, bent ATP
row,Molecule,"X-ray crystal structure, 2.2 Å"
1,Nc1ncnc2c1ncn2[C@@H]1O[C@H](COP(=O)(O)OP(=O)(O)OP(=O)(O)O)[C@@H](O)[C@H]1O [ATP],Rod-shaped crystals were obtained which surprisingly showed ATP bound in the open form

# Substrate: Nc1ncnc2c1ncn2[C@@H]1O[C@H](COP(=O)(O)OP(=O)(O)OP(=O)(O)O)[C@@H](O)[C@H]1O
# Test: cells, lysate or membranes
# Settings: ATP/Mg2+ 1:1, 50 µM DSMP, pH 8.5, 30 °C, Triton X-100
Molecule,Km [µM],kcat
B1,1900 ± 500,(2.9 ± 0.2)×10^−3 sec^−1
B2,1300 ± 200,(4.6 ± 0.2)×10^−3 sec^−1
B3,4000 ± 600,(8.3 ± 0.4)×10^−4 sec^−1
B4,1500 ± 400,(1.3 ± 0.1)×10^−3 sec^−1
B5,2900 ± 400,(4.8 ± 0.2)×10^−4 sec^−1
B6,6000 ± 1000,(4.7 ± 0.6)×10^−1 sec^−1
B7,5000 ± 1000,(4.8 ± 0.5)×10^−4 sec^−1
B8,2800 ± 500,(1.5 ± 0.1)×10^−3 sec^−1
B9,2700 ± 300,3.9 ± 0.1 s⁻¹
B10,2200 ± 300,(1.3 ± 0.1)×10^−3 sec^−1

# Biological target: T1, LpxK (A. aeolicus LpxK)
# Test: not given
# Settings: co-crystal, 4.3 mM AMP-PCP, 1 mM EDTA; active site, closed conformation
row,Molecule,"X-ray crystal structure, 2.1 Å"
1,"Nc1ncnc2c1ncn2[C@@H]1O[C@H](COP(=O)(O)OP(=O)(O)CP(=O)(O)O)[C@@H](O)[C@H]1O [AMP-PCP, 5'-adenylyl (β, γ-methylene)diphosphonate]",co-crystals in complex with the non-hydrolizable analog AMP-PCP were generated and the structure solved

# Changes are numbered by the printed parent chain. Numbers in names are those of the source.
